Experimental data: patent US7214716B2, “Agonists specific for the peripheral cannabinoid receptor” (Yissum Research Development Co. of the Hebrew University of …, priority 2000, dated 2007)

Sequences of proteins named here, by UniProt entry; tags and fusion partners are left off.
UniProt P34972, whole entry: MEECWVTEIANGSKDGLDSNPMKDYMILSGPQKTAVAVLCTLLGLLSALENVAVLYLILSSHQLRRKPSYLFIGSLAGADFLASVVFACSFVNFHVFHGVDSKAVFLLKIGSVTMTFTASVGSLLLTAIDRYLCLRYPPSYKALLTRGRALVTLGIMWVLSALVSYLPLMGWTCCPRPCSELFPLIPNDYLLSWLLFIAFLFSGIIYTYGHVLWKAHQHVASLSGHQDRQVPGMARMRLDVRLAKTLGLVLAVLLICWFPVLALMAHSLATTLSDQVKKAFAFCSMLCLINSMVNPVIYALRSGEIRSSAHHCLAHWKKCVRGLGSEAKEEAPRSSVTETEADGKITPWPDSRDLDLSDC

Target: T1, CB2 cannabinoid receptor (Homo sapiens, UniProt P34972)
T1 construct: expressed in transfected cells; host or cells: COS-7
Test: biochemical
Type: binding
Source text: This difference in binding is reflected in the results of the pharmacological assays. […] Such effects are considered to be mediated by the CBI receptor.

CCCCCCC(C)(C)c1cc(OC)c([C@H]2C=C(CO)[C@H]3CC2C3(C)C)c(OC)c1 (single isomer, unassigned; (+)) [HU-308, (+)-(1-a-H,-(3-H,5-a-H)-4-(2,6-dimethoxy-4-(1,1-dimethylheptyl)phenyl]-6,6-dimethylbicycloj3.1.1]hept-2-ene-2-carbinol]
Ki: 22.7 ± 3.9 nM
